The target of this test is WT β-cHMM2.0 (human β-cardiac heavy meromyosin with the S2Tag inserted in the S2 domain) (human | chicken). The experiment in a line: three-bead optical trap; WT-cHMM2.0 held on nitrocellulose-coated pedestal beads through mAb 10F12.3; actin filament dumbbell between two optically trapped beads; 1 uM MgATP; trapping buffer 25 mM KCl, 60 mM MOPS pH 7.0, 1 mM DTT, 1 mM MgCl2, 1 mM EGTA; single-molecule interactions found by a decrease in bead covariance.

Take “rabbit skeletal muscle actin filaments (from UniProt P68135 1-377) (natural protein)”: the k detach (actin detachment rate at 1 uM ATP) worked out at 5.9 s⁻¹.

Values taken from article PMC12597268.
